Target: Norepinephrine transporter (Rattus norvegicus, UniProt Q9WTR4)
Test: Inhibition of [3H]NE uptake at Norepinephrine transporter in rat parietal/occipital cortex was determined

Amino acid sequences for entries named in this document (tags omitted).
UniProt Q9WTR4, whole entry: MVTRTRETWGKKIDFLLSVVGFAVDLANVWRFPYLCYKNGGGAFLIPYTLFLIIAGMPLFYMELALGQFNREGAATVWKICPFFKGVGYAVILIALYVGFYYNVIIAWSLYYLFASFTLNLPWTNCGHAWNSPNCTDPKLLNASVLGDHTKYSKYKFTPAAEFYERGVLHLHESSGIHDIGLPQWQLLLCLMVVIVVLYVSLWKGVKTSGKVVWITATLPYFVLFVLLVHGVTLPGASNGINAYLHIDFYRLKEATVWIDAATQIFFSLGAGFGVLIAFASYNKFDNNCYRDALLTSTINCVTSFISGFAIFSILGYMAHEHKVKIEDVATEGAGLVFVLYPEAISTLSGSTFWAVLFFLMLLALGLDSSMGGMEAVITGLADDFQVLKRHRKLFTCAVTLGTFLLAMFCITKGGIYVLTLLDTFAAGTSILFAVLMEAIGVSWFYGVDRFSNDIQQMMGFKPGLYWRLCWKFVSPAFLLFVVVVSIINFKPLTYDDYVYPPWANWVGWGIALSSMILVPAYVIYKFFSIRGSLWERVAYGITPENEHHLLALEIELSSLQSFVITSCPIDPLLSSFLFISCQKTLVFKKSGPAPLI

COC(=O)[C@@H]1C2CC[C@@H](C[C@@H]1OC(=O)c1ccccc1)N2C (single isomer, unassigned) [COCAINE] was tested, and the Ki was 190 nM.

— ChEMBL document CHEMBL1134711, “Pharmacophore-based discovery of 3,4-disubstituted pyrrolidines as a novel class of monoamine transporter inhibitors” (Bioorg Med Chem Lett, 2001)
